Tested on: Human pancreatic ductal epithelial cells
Assay: qRT-PCR after 2- and 7-day EZH2 inhibitor stimulation of human pancreatic ductal epithelial cells
Format: cell-based
Conditions: EPZ6438 1 μM
[1] = 2 days, GSK-126 10 μM, Triptolide 20 nM

Structure (SMILES): CCN(c1cc(-c2ccc(CN3CCOCC3)cc2)cc(C(=O)NCc2c(C)cc(C)[nH]c2=O)c1C)C1CCOCC1 [EPZ-6438, N-[(1,2-Dihydro-4,6-dimethyl-2-oxo-3-pyridinyl)methyl]-5-[ethyl(tetrahydro-2H-pyran-4-yl)amino]-4-methyl-4′-(4-morpholinylmethyl)[1,1′-biphenyl]-3-carboxamide]
- CK19 expression [1]: increase
- NGN3 mRNA levels [1]: significantly elevated
- insulin transcripts, mature mRNA (INS) [1]: elevations
- insulin transcripts, mature mRNA (INS) (7 days, GSK-126 10 μM, Triptolide 20 nM): maintained
- CK19 expression levels (day 7): decreased significantly

From patent US20250235486A1, “Method of Producing Insulin-Producing Cells” (Monash University, priority 2022, published 2025)
